This is an account of results in US9938267B2, “Heterocyclic inhibitors of glutaminase” (Calithera Biosciences, Inc., priority 2011, dated 2018).

Protein sequences, listed by entry. Tags and fused reporters are not part of them. Residues count along the entry.
UniProt O94925, 55-669 limits assumed: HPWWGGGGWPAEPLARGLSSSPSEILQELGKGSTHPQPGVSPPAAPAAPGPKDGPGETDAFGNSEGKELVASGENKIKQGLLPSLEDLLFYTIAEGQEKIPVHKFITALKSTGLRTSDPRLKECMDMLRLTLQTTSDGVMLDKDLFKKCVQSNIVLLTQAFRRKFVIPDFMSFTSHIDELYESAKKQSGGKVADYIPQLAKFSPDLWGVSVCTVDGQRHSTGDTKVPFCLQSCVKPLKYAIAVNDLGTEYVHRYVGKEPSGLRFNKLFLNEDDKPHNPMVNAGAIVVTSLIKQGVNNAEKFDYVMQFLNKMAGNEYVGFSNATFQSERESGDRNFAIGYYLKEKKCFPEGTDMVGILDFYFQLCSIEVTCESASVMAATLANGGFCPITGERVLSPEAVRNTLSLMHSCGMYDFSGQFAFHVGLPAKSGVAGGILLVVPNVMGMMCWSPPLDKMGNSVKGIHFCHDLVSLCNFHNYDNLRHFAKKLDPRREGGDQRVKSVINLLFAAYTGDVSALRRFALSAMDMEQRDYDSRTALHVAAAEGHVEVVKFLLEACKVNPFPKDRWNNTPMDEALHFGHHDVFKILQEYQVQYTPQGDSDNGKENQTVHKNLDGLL

This test deals with recombinant form of Glutaminase 1 (GAC) (Homo sapiens, UniProt O94925). Nature of the test: Recombinant enzyme assay (GAC, GDH-coupled absorbance, no preincubation). The test is classed as biochemical. Conditions: read-out: GAC Delta N2 IC50 no preinc. As to the method:
Enzymatic reaction was started with the addition of 50 μL of enzyme solution (50 mM Tris-HCl pH 8.0, 0.2 mM EDTA, 150 mM K2HPO4, 0.1 mg/ml BSA, 1 mM DTT, 10 ppm antifoam, 4 units/ml GDH, 4 mM adenosine diphosphate, and 4 nM GAC) and read in a Molecular Devices M5 plate reader at 20° C. The plate reader was configured to read absorbance (λ=340 nm) in kinetic mode for 15 minutes. Data was recorded as milli-absorbance units per minute and slopes were compared to a control compound and a DMSO-only control on the same plate. Compounds with slopes less than the DMSO control were considered inhibitors and plate variability was assessed using the control compound.

Regarding `O=C(C[C@@H](O)c1ccccc1)Nc1nnc(CCSCCc2nnc(NC(=O)C[C@@H](O)C3CCCCC3)s2)s1` [Compound 126], the IC50 worked out at 5800 nM.
For `O=C(Cc1cccc(OCCO)c1)Nc1nnc(CCSCCc2nnc(NC(=O)Cc3cccc(OCCO)c3)s2)s1` [Compound 236], the IC50 stood at 200 nM.
